T1: CHD1 chromodomain
T1 chain: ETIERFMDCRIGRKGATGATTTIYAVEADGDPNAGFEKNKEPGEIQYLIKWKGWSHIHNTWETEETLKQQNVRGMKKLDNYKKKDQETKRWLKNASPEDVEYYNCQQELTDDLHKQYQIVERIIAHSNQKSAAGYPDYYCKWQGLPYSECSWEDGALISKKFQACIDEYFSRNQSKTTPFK


Biological target: T1, CHD1 chromodomain
Assay: ITC

Kd | Binder
5.41 µM | ARTKQTARKSTGGKA (trimethyl-lysine at 4; serotonylated glutamine at 5; C-terminal amide (general statement of the peptide synthesis)) [H3K4me3Q5ser histone H3 tail peptide (ITC)]
6.21 µM | ARTKQTARKSTGGKA (trimethyl-lysine at 4; histaminylated glutamine at 5; C-terminal amide (general statement of the peptide synthesis)) [H3K4me3Q5his histone H3 tail peptide (ITC)]
12.2 µM | ARTKQTARKSTGGKA (trimethyl-lysine at 4; C-terminal amide (general statement of the peptide synthesis)) [H3K4me3 histone H3 tail peptide (ITC)]

— publication PMC11754111 (2025)
